This is an account of results in patent US20230219962A1, “PYRAZOLO[4,3-d]PYRIMIDINE DERIVATIVES AND METHODS OF USE THEREOF FOR THE TREATMENT OF CELLULAR PROLIFERATIVE DISORDERS” (Merck Sharp & Dohme LLC, priority 2020, published 2023).

Chains of the proteins cited; added tags and fusions are not shown. Residues count along the entry.
UniProt Q9NYK1, 27-1049 limits assumed: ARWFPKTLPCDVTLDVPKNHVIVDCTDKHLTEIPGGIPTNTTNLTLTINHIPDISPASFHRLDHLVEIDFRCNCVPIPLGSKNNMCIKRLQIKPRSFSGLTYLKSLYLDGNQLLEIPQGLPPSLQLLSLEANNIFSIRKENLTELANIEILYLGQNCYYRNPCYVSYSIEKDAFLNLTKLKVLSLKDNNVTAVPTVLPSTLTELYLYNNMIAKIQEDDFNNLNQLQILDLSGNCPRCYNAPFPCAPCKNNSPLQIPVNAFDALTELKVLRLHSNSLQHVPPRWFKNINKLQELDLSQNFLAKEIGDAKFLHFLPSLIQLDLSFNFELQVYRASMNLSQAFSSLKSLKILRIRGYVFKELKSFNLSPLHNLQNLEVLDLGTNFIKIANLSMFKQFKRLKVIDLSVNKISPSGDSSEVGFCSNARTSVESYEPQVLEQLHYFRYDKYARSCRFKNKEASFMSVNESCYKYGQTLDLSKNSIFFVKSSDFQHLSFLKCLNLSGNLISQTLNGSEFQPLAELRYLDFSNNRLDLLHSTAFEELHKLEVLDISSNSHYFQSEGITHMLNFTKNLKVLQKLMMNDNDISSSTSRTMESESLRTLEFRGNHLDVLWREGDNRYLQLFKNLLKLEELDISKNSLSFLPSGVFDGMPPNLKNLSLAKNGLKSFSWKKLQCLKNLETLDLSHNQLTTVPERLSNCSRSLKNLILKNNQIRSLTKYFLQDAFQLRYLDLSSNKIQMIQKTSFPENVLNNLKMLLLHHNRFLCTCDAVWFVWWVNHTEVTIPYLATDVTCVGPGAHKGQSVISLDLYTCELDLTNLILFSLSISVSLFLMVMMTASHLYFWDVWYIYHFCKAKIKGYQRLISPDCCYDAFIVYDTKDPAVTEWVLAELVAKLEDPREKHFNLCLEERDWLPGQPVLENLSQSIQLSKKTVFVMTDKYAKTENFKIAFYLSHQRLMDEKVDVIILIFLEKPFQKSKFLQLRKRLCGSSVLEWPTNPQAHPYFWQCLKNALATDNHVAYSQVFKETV
UniProt Q9NR97, 27-1041 limits assumed: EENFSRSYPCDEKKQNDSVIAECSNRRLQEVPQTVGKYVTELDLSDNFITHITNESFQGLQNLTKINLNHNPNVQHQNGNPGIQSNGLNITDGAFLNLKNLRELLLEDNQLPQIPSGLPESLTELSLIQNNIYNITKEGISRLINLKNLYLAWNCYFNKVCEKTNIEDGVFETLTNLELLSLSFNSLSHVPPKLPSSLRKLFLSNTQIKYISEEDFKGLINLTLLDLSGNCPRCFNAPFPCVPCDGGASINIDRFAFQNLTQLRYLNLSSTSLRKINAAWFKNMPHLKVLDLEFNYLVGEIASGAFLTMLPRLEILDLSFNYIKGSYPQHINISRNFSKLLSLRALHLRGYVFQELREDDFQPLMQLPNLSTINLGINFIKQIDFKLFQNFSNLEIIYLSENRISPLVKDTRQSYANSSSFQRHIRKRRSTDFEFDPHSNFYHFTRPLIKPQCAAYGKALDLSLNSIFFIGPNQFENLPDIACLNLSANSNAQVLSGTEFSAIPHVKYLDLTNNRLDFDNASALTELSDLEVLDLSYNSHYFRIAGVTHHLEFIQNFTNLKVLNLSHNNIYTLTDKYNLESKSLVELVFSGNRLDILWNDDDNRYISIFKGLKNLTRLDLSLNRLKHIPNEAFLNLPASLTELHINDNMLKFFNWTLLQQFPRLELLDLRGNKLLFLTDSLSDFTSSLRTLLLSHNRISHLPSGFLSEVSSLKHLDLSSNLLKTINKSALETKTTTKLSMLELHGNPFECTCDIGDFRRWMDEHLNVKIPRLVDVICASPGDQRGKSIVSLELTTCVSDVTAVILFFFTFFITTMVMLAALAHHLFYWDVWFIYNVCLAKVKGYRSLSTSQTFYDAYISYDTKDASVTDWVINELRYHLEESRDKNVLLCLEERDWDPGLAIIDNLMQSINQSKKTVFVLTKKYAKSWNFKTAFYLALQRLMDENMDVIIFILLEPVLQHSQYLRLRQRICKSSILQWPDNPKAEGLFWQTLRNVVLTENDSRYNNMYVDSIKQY

The term EC50 denotes the concentration that produces a half-maximal response.

SMILES strings stand for the structures. Where two headings read alike, the source gives them in different places.

Assay [1] addresses hTLR7 (Homo sapiens, UniProt Q9NYK1). The assay is described as follows: Human TLR7 Reporter Assay. To be noted: read-out: hTLR7 EC50, HEK-Blue hTLR7 cells, 16 hours, normalized to CL097 (6 μM) and DMSO. Here is the method: (§1) HEK-Blue™ hTLR7 cells (Invivogen, San Diego, Calif.) were maintained at 37° C./5% CO2/90% relative humidity in Dulbecco's Modified Eagle's Medium with 10% fetal bovine serum, 100 units/mL penicillin, 100 μg/mL streptomycin, 100 μg/mL normocin, 10 μg/mL blasticidin, and 100 μg/mL zeocin. HEK-Blue™ hTLR7 cells were maintained at 10-90% confluence and used before passage 20. For this assay, test compounds were dissolved in DMSO, and 10-point serial 3-fold dilution series in DMSO were prepared in Echo Qualified 384-well Polypropylene Microplates (Labcyte, San Jose, Calif.). Assay plates (384-well flat, clear bottom, black polystyrene TC-treated microtiter plates; Corning, Corning, N.Y.) were prepared by dispensing 150 nL of test compounds, high control (CL097; Invivogen, San Diego, Calif.), and low control (DMSO) by ECHO acoustic dispenser (Labcyte, San Jose Calif.) followed by addition of 5 μL of HEK-Blue™ Detection assay media (Invivogen, San Diego, Calif.). HEK-Blue™ hTLR7 cells in HEK-Blue™ Detection assay media (20,000 cells per well in 45 μL of media) were added to the assay plate and incubated for 16 hours at 37° C./5% CO2/90% relative humidity. For detection, assay plates were removed from the incubator, allowed to cool to ambient temperature, centrifuged at 200×g for 1 minutes, and read with an EnSpire Multimode Plate Reader (Perkin Elmer, Waltham, Mass.) for absorbance at 620 nm. Test compound effects were normalized to the window defined by the controls, CL097 (6 μM), and DMSO. Calculated % effects were fit using a 4-parameter algorithm, and EC50 was reported.
(Reporter assays use an easily measured gene product as a stand-in for the process of interest.)

Assay [2] has as its target hTLR8 (Homo sapiens, UniProt Q9NR97). As to the kind of experiment: Human TLR8 Reporter Assay. The conditions noted are these: read-out: hTLR8 EC50, HEK-Blue hTLR8 cells, 16 hours, normalized to tl8-506 (1 μM) and DMSO. The protocol: as §1, with “hTLR8” for “hTLR7”, “(tl8-506;” for “(CL097;”, “tl8-506 (1” for “CL097 (6”

`CCCCNc1nc(N)nc2cn(Cc3c(OC)cc(CC(C)N)cc3OC)nc12` (single isomer, unassigned): the EC50 turned out to be 531 nM in assay [1] (tested form: trifluoroacetate) and 0.311 µM in assay [2] (tested form: trifluoroacetate).
Consider `CCCC(CCO)Nc1nc(N)nc2cn(Cc3ccccc3OC)nc12` (single isomer, unassigned) [Compound 14], for which the EC50 worked out at 54.2 nM in assay [1] and 3.83 µM in assay [2].
`CCCCNc1nc(N)nc2cn(Cc3ccc(C(C)N)cc3OC)nc12` (stereo not shown) [Compound 167]: the 50% effective concentration (EC50) in assay [1] (tested form: TFA) was found to be 223 nM; in assay [2] (tested form: TFA), 0.231 µM.
Taken in the same sequence, the figures for `CCCCNc1nc(N)nc2cn(Cc3cc(CN4CCNCC4)ccc3OC)nc12` were 1940 nM and 3.08 µM.
For `CCCC(CCO)Nc1nc(N)nc2cn(Cc3ccccc3OC)nc12` (single isomer, unassigned) [Compound 15], the EC50 is 291 nM in assay [1] and over 29.9 µM in assay [2].
